Measured affinities in a library of Ab-14 heavy chain variants

From the AlphaSeq antibody data of Li et al. 2023 (doi:10.1038/s41467-023-39022-2), copy in the FLAb collection.

Antigen: PDVDLGDISGINAS, a 14-residue peptide of the SARS-CoV-2 spike HR2 region.

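Phage display of a naive human antibody library on the peptide gave the parent. Designed CDR sequences, proposed from the first random library and measured here. Their group label is 14H_GP_HC (GP: Gaussian process model; HC: hill climbing; a sequence that several methods proposed may carry one label only). AlphaSeq pools MATa yeast showing the antibodies with MATalpha yeast showing the peptide. Binding brings cells together so that they mate, and sequencing counts the barcode pairs among the diploids. Read counts were normalised to the haploid input and turned into Kd by a linear fit to BCL2-family pairs of known affinity, for each replicate. There are six technical replicates.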

Parent: Ab-14, a human scFv built as VH, the linker GGGGSGGGGSGGGGS, VL. Only the CDRs of the heavy chain vary.
VH: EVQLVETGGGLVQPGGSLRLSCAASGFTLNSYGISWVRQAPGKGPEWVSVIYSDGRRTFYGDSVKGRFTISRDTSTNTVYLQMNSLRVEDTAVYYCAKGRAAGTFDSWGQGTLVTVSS
VL: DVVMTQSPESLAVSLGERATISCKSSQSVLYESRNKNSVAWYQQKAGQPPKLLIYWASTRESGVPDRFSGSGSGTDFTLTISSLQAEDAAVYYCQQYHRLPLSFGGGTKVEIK

The whole VH of each variant is written out.
Affinities are written as log10 Kd with Kd in nM; a lower number is a better binder.
Averages over replicates are reported, and they cover detected replicates only.
A pair that was not seen in that replicate is written "ND"; this usually means weak binding, but a binder can also be missed.
Nonspecific signal, from three strains lacking the peptide, appeared in 1% of pairings of all heavy chain designs, centred on 2.08 (5% of these signals below 0.84); values are not corrected for it. For each scFv, signals with the empty controls are counted beside the result, with their mean in brackets.

| VH | replicates, log10 nM | mean, log10 nM | signal with controls |
|---|---|---|---|
| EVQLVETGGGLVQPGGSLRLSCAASGFTLESYGISWVRQAPGKGPEWVSVIYSDGRRTFYHDSVKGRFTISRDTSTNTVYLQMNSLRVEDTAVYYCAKGRAAGTFTSWGQGTLVTVSS | 0.33 / ND / ND / 0.36 / 1.86 / 2.08 | 1.16 | 0 of 18 |
| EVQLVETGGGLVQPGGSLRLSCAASGFTLNDYGISWVRQAPGKGPEWVSVIYSDGRRTQYMDSVKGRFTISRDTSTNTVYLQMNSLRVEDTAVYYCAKGRTAGTFDSWGQGTLVTVSS | ND / ND / 1.97 / ND / 4.27 / 3.08 | 3.11 | 1 of 18 (1.82) |
| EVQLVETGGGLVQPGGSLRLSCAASGFPLNSYGISWVRQAPGKGPEWVSVIYSDGRRTFYDDSVKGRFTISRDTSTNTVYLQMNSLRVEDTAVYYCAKGQVAGTFDSWGQGTLVTVSS | 2.21 / 1.07 / 1.22 / 1.31 / 1.16 / 0.81 | 1.30 | 0 of 18 |
| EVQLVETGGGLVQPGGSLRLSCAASRFTLNSYGISWVRQAPGKGPEWVSVIYSDGRRTFYIDSVKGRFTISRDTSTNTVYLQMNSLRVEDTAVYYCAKGRQAGTFDSWGQGTLVTVSS | ND / ND / ND / ND / ND / ND | ND | 0 of 18 |
| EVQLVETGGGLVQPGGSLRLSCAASGFELNSYGISWVRQAPGKGPEWVSVIYSDGRRTFYDDSVKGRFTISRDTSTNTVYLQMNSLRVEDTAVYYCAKGALAGTFDSWGQGTLVTVSS | 0.45 / 0.63 / 0.49 / 0.62 / 0.63 / 0.43 | 0.54 | 0 of 18 |
| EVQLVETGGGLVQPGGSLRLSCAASGFTLNSYGISWVRQAPGKGPEWVSVIYSDGERTFYCDSVKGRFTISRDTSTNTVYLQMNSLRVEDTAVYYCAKGRTAGTFDSWGQGTLVTVSS | 0.82 / 1.58 / ND / 2.15 / 2.07 / 2.03 | 1.73 | 0 of 18 |
| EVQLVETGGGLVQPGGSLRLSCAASYFTLESYGISWVRQAPGKGPEWVSVIYADGRRTFYGDSVKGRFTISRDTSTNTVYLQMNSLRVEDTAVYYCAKGRAAGTFKSWGQGTLVTVSS | ND / ND / ND / ND / ND / ND | ND | 0 of 18 |
| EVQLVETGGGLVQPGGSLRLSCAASGFHLNDYGISWVRQAPGKGPEWVSVIYSDGRRTFYIDSVKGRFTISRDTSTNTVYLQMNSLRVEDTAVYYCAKGRSAGTFDSWGQGTLVTVSS | 1.23 / 1.61 / 1.69 / 1.37 / 0.61 / 0.94 | 1.24 | 0 of 18 |
| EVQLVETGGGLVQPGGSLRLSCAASGFTLNEYGISWVRQAPGKGPEWVSVIYSDGRRTFYQDSVKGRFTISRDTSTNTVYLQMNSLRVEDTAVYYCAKGRAAVTFDTWGQGTLVTVSS | ND / ND / ND / ND / ND / ND | ND | 1 of 18 (2.13) |
| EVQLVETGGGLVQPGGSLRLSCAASGFSLNEYGISWVRQAPGKGPEWVSVIYSDGRRTFYCDSVKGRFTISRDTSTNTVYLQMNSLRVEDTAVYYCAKGEAAGTFDRWGQGTLVTVSS | 0.99 / 1.68 / 1.44 / 1.64 / 0.84 / 0.84 | 1.24 | 0 of 18 |
| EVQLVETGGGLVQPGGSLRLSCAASGFRLNEYGISWVRQAPGKGPEWVSVIYSDGRRTFYGDSVKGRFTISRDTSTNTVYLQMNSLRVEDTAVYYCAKGRAAGTFDMWGQGTLVTVSS | ND / 0.94 / 0.71 / 1.32 / 1.59 / 1.04 | 1.12 | 0 of 18 |
| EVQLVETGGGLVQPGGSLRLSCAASGFQLNDYGISWVRQAPGKGPEWVSVIYSDGRRTFYIDKVKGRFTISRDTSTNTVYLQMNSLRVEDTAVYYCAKGKTAGTFDSWGQGTLVTVSS | 1.30 / 0.68 / ND / 0.02 / 0.33 / ND | 0.58 | 0 of 18 |
| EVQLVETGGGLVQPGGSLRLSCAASGFELEKYGISWVRQAPGKGPEWVSVIYSDGRRTFYGDSVKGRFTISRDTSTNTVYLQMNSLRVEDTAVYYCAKGRAAGTFDSWGQGTLVTVSS | -0.08 / -0.38 / -0.61 / -0.44 / -0.31 / -0.01 | -0.30 | 0 of 18 |
| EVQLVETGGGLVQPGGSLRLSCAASGFALNSYGISWVRQAPGKGPEWVSVIYSDGRRTFYKDSVKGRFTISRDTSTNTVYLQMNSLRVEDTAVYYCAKGQLAGTFDSWGQGTLVTVSS | 0.69 / 0.98 / 0.08 / -0.07 / 0.26 / -0.05 | 0.32 | 0 of 18 |
| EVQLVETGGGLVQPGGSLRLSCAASGFTLNEYGISWVRQAPGKGPEWVSVIYSDGRRTFYSDSVKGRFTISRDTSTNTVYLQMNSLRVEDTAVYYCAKGQVAGTFDSWGQGTLVTVSS | 0.71 / 0.20 / -0.19 / 0.32 / -0.51 / 0.11 | 0.11 | 0 of 18 |

The last 2 entries again:

| VH | replicates, log10 nM | mean, log10 nM | signal with controls |
|---|---|---|---|
| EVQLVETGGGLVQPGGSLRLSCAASGFALNSYGISWVRQAPGKGPEWVSVIYSDGRRTFYKDSVKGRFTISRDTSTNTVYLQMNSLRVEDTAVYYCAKGQLAGTFDSWGQGTLVTVSS | 0.69 / 0.98 / 0.08 / -0.07 / 0.26 / -0.05 | 0.32 | 0 of 18 |
| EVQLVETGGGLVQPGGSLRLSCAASGFTLNEYGISWVRQAPGKGPEWVSVIYSDGRRTFYSDSVKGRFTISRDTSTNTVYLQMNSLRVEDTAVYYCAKGQVAGTFDSWGQGTLVTVSS | 0.71 / 0.20 / -0.19 / 0.32 / -0.51 / 0.11 | 0.11 | 0 of 18 |

Of ten entries with the parent sequence, four were seen in most replicates (averages 0.34 to 2.37), three in one and three in none, so single entries are noisy.
The authors averaged sequences with at least three values out of six and counted those with two or fewer as poor binders.
The range of this assay differs from that of the first round, and the authors advise against merging the two.